In US11065294B2, “Composition including oriental medicine to treat neoplastic disease” (COMPREHENSIVE AND INTEGRATIVE MEDICINE INSTITUTE, priority 2013, dated 2021):
Structures can show the parent of a compound that is named as a salt.

System: MCF-7 cell xenograft
Experiment: MCF-7 xenograft nude mice, 35 days oral: tamoxifen 20 mg/kg single, JEKHT 500 mg/kg single, or co-administered within 5 minutes; tumor, immune and cachexia readouts
Type: in vivo, Balb/c Slc nu/nu mice
Settings: tumor mass; JEKHT dose = table row
Text: In Example 3, as laboratory animals, Balb/c Slc nu/nu mice (5-week-old females, SLC, Shizuoka, Japan) were used. Seventy three nude mice were purchased, and sixty seven xenografted mice having a tumor volume of 50 mm^3 or more 14 days after MCF-7 cells were xenografted into subcutaneous parts of a right hip of each mouse were selected, and divided into groups of seven mice each.
The xenografted MCF-7 cells were maintained by sub-culturing the MCF-7 cells (American Type Culture Collection Center, VA, USA) using 10% fetal bovine serum (FBS)-added RPMI 1640 (Gibco, Grand Island, N.Y., USA) media in a 5% C02 incubator at 37° C., and a solid tumor mass was formed by preparing a tumor cell suspension to have a cell concentration of 1.0×10^8 cell/ml, and grafting 0.2 ml (2×10^7 cell/mouse) of the MCF-7 tumor cell suspension on a subcutaneous part of a right hip of each mouse.

CC/C(=C(\c1ccccc1)c1ccc(OCCN(C)C)cc1)c1ccccc1 [Tamoxifen, Tamoxifen citrate]
Caspase-3 immunoreactive cell percentages: 21.86 ± 4.22 %/tumor cells
PARP immunoreactive cell percentages: 22.14 ± 4.26 %/tumor cells
TNF-α immunoreactive cell percentages: 3.71 ± 1.80 %/tumor cells
